Assay results from patent publication US7875284B2, “Methods of manufacturing and modifying taxane coatings for implantable medical devices” (Cook Incorporated, priority 2006, dated 2011).

| first order rate constant of elution (porcine serum (37° C.)) | half life of elution (pig, serum) | SMILES |
| --- | --- | --- |
| about 0.0244 min^−1 | – | CC(=O)O[C@H]1C(=O)[C@@]2(C)[C@H]([C@H](OC(=O)c3ccccc3)[C@]3(O)C[C@H](OC(=O)[C@H](O)[C@@H](NC(=O)c4ccccc4)c4ccccc4)C(C)=C1C3(C)C)[C@]1(OC(C)=O)CO[C@@H]1C[C@@H]2O [amorphous paclitaxel, paclitaxel] |
| – | about 38.5 hours | CC(=O)O[C@H]1C(=O)[C@@]2(C)[C@H]([C@H](OC(=O)c3ccccc3)[C@]3(O)C[C@H](OC(=O)[C@H](O)[C@@H](NC(=O)c4ccccc4)c4ccccc4)C(C)=C1C3(C)C)[C@]1(OC(C)=O)CO[C@@H]1C[C@@H]2O [dihydrate paclitaxel, paclitaxel] |
